Test results reported in patent publication US10457707B2, “Substituted urea depsipeptide analogs as activators of the CLPP endopeptidase” (priority 2015, dated 2019).

Experiment: Solubility determination in DPBS (LC-MS/UV)
Settings: 100 uM nominal, the given compound itself

sodium (R)-1-((2R,6S,9S,11aS,17S,18S,20aS)-17-((S)-3-(3,5-difluorophenyl)-2-(3-(p-tolyl)ureido)propanamido)-2,6,10,18-tetramethyl-5,8,11,16,20-pentaoxohexadecahydro-1H,5H,16H-dipyrrolo[2,1-c:2′,1′-l][1]oxa[4,7,10,13]tetraazacyclohexadecin-9-yl)ethyl phosphate [Compound 193]
Solubility, Compound: 114.6 ± 2.4 µM
